Experiment [1] deals with T1, human EPN1 expressed by human cell lines (human, UniProt Q9Y6I3 1-576).
T1 construct: Endogenous EPN1 of human tumour and normal cell lines, stained on live cells or on fixed and permeabilised cells, or immunoprecipitated; The cell lines were not engineered to express it; also called surface EPN1; huEPN1
T1 sequence: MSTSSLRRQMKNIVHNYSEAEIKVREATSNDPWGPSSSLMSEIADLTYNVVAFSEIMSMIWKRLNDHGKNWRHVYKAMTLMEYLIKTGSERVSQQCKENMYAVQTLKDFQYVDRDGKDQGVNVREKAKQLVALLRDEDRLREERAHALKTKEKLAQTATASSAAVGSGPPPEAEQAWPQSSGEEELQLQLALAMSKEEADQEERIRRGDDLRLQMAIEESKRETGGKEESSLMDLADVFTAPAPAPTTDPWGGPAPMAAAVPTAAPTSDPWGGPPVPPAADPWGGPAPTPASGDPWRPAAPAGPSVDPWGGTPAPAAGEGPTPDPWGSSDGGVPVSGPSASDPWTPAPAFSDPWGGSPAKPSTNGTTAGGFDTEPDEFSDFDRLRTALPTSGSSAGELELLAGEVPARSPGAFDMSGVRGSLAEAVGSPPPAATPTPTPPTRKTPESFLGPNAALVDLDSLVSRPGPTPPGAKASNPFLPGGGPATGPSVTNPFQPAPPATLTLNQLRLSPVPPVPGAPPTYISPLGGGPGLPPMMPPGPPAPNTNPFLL
Nature of the experiment: flow cytometry, WM3211 cells (human tumor line). In general terms: A flow cytometer gives signals particle by particle.

In experiment [2] the target is T1, human EPN1 expressed by human cell lines. As to the kind of experiment: flow cytometry on intact cells (lower end; corresponds to A549). From the text: (§1) Binding of IMM20059 to intact cells was detected with fluorophore-labelled anti-human secondary antibodies.
(§2) Full-length IgG1 antibody, containing the PR045-2H11 Ab VH and VL domains, was expressed recombinantly by transient transfection into mammalian cell lines, such as Chinese Hampster Ovary (CHO) and human embryonic kidney (HEK), or derivatives of those cell lines, using standard conditions. The recombinant antibody, referred to as IMM20059, was purified from conditioned media by affinity chromatography, buffer exchanged into PBS and analyzed for activity by flow cytometry. […] IMM20059 binds, to varying degrees, to the surfaces of cells included in a panel of human cancer cells, immortalized normal human cell lines, and mouse tumor lines (Table 1).

The target of experiment [3] is T2, mouse EPN1 expressed by mouse cell lines (mouse, UniProt Q80VP1 1-575).
T2 construct: whole, on cells; also called murine EPN1
T2 sequence (looked up): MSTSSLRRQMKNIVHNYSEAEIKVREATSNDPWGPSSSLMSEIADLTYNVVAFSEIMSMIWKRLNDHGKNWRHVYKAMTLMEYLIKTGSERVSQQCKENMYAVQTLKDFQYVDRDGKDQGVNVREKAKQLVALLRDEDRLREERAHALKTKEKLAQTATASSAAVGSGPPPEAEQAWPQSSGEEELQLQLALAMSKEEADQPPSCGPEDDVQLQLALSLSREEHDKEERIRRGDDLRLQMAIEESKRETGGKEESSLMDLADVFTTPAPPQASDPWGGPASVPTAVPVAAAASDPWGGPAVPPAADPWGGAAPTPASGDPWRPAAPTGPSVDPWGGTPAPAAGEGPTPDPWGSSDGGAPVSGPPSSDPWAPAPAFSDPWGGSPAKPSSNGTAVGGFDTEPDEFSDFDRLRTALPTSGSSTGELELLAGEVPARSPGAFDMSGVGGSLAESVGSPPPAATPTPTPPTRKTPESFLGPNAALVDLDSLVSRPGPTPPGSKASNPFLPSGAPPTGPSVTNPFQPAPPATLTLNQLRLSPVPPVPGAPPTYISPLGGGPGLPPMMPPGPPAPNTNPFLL
As to the kind of experiment: flow cytometry, B16F0 cells (mouse tumor line).

The target of experiment [4] is T3, recombinant EPN1 (Origene, cat #TP307099) (human, UniProt Q9Y6I3 1-576).
T3 construct: Bought protein; also called Epsin-1; Epsin 1
T3 sequence: T1 sequence
Nature of the experiment: SPR, IMM20059 captured at 2800 RU on CM5/Protein A, EPN1 in solution, 25° C. As to the method: (§3) IMM20059 was captured at four different surface densities (500, 1000, 2600, and 2800 RU) on a CM5/Protein A sensor chip using 10 mM HEPES, pH 7.4, 150 mM NaCl, 0.005% Tween-20, 0.2 mg/mL BSA as a running buffer. EPN1 (Origene Cat #TP307099) or EPN2 (Origene Cat #TP310899) were diluted in running buffer to both 200 nM and 20 nM and analyzed for the ability to bind to the immobilized IMM20059 at 25° C. […] However, as detailed in Table 4, the observed off-rates for binding to EPN1 were dependent upon IMM20059 surface density, with the off-rate on the 500 RU surface being 2.4-times faster than the off-rate measured on the 2800 RU density surface.
(Surface plasmon resonance follows binding to a sensor surface in real time, without labels.)

Experiment [5] concerns the target T1, human EPN1 expressed by human cell lines. Nature of the experiment: flow cytometry, A549 cells (human tumor line).
In experiment [6] the target is T3, recombinant EPN1 (Origene, cat …). As to the kind of experiment: SPR, IMM20059 captured at 500 RU on CM5/Protein A, EPN1 in solution, 25° C. As for the experimental part:
as §3

Experiment [7] concerns the target T1, human EPN1 expressed by human cell lines. As to the kind of experiment: flow cytometry, N87 cells (human tumor line).
The target is the same in experiment [8]. Nature of the experiment: flow cytometry, HCT15 cells (human tumor line).
For experiment [9] the target is unchanged. Nature of the experiment: flow cytometry on intact cells (upper end; corresponds to Huh7).
Excerpt: Binding of IMM20059 to intact cells was detected with fluorophore-labelled anti-human secondary Abs.
as §2

For experiment [10] the target is unchanged. Nature of the experiment: flow cytometry, 769p cells (human tumor line).
For experiment [11] the target is unchanged. As to the kind of experiment: flow cytometry, FLO1 cells (human tumor line).
Experiment [12] shares this target. Nature of the experiment: flow cytometry, MFE296 cells (human tumor line).
Experiment [13] has the same target. As to the kind of experiment: flow cytometry on intact A549 cells, fluorophore-labelled anti-human secondary.
Excerpt: as §1, §2

Experimental findings from patent US20220002435A1 (IMMUNOME, published 2022) are described below.

B1: IMM20059 (antibody, human IgG1, kappa, V domains shown)
VH: EVQLVESGGGLVQPGGSLRLSCAASGFTFSIHSLNWVRQAPGKGLEWVSYISSNSTTIYYADSVKGRFTISRDNAKDSLYLQMNSLRDEDTAVYYCARDYYCTGGTCFFLPDLWGRGALVTVSS
VL: EIVLTQSPATLSLSPGERATLSCRASQNISNFLAWYQHKPGQAPRLLIYDASIRATGIPARFSGSGSGTDFSLTISSLEPEDFAVYFCQQRYNWLTFGGGTKVEIKR
Turning to B1, the “MFI (fold mean fluorescence index above isotype control)” value in [1] turned out to be 3 fold; in experiment [3] it was 5 fold; in experiment [5] it was 8 fold; in experiment [7], 4 fold; in experiment [8], 2 fold; in experiment [10], 14 fold. For the same molecule, the “MFI (fold mean fluorescence index above isotype control)” value was found to be 6 fold in experiment [11] and 17 fold in experiment [12]. The EC50 in experiment [2] is 6 to 9 nM; in experiment [9] it was 6 to 9 nM; in experiment [13] it was 0.86 µg/mL. Besides, the Kd turned out to be 0.827 nM in [4] and 2.4 nM in [6]. Besides, the koff in experiment [4] is 0.000243 s⁻¹; in experiment [6], 0.000587 s⁻¹. Besides, the results for the kon in experiment [4] and in experiment [6] were 293000 M⁻¹ s⁻¹ and 244000 M⁻¹ s⁻¹, respectively.

By EC50 is commonly meant the concentration giving half of the maximal effect. By Kd is commonly meant the concentration at which binding is half-saturated. As a reminder, the koff is a measure of how fast the partners let go of each other. The term kon denotes a measure of how fast the partners come together.
